This note sets out measurements from patent US5354758A, “Benzomorphans useful as NMDA receptor antagonists” (priority 1992, dated 1994).

Structures are written as SMILES.

The test concerns the target NMDA receptor site. The test can be described thus: In vitro binding, inhibition of [^3 H]MK-801 binding to rat forebrain synaptic membranes. Also noted: species or system Sprague-Dawley rat. To be noted: 3 nM [^3 H]MK-801, 50 μM glycine and glutamate, 37° C., 2 hours, read-out: Ki [^3 H]MK801. As for the experimental part:
As described below, the compounds of the invention were tested for their ability to inhibit binding of radiolabeled versions of these known ligands.
Semipurified synaptic membranes were prepared according to the method of Bristow et al. (1986) with minor modifications. Sprague-Dawley rats were decapitated and the forebrains were removed, weighed, and homogenized in 20 volumes of 0.32M sucrose. The homogenate was centrifuged at 121×G for 10 min. The resulting supernatant was recentrifuged at 27,000×G for 15 min. The pellet was resuspended in 20 volumes of distilled water and this suspension was centrifuged at 8,000×G for 10 min. Both the supernatant and the buffy coat layer, removed with 2 mL of 5 mM Tris-Cl (pH 7.8), were pooled and centrifuged at 27,000×G for 15 min. The supernatant was removed, the pellet was covered with a small amount of 5 mM Tris-Cl, and the sample was frozen for at least 18 hrs at -20° C. Membranes were then washed four times in 5 mM Tris-Cl and finally resuspended in 25 mL. […]
The incubation was terminated by rapid filtration (Brandel Cell Harvester) over Whatman GF/B filters, which were then washed twice with 5 mL of 5 mM Tris-HCl. Radioactivity trapped on the filters was counted in 5 mL Scintiverse II at 50% efficiency in 7 mL minivials after standing at room temperature overnight.

`CN1CC[C@@]23CCCC[C@@H]2[C@@H]1Cc1ccc(O)cc13` [Dextrorphan, reference compound]: the Ki (usually a measure of affinity in units of concentration, obtained from inhibition or displacement) amounted to 520 nM.

In the case of `COc1ccc2c(c1)[C@]13CCCC[C@@H]1[C@H](C2)N(C)CC3` [Dextromethorphan, reference compound], the Ki was determined as 2750 nM.
